From US20080045535A1, “Prokineticin 2 receptor antagonists” (priority 2005, published 2008)

Protein sequences, listed by entry. Tags and fused reporters are not part of them.
UniProt Q8TCW9, whole entry: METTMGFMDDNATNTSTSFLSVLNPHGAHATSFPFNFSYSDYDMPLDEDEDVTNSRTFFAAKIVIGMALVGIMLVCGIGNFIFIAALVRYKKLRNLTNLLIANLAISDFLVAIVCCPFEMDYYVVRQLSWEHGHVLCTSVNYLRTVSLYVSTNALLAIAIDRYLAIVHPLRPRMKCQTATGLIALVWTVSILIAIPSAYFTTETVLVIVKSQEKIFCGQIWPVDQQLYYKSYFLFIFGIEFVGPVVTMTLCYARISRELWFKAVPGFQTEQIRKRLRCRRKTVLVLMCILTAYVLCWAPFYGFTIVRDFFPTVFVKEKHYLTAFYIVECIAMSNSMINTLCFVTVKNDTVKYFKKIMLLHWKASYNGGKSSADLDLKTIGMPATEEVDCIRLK

Target: HEK 293 GPR73 (prokineticin 1 receptor) expressing cells (Homo sapiens, UniProt Q8TCW9)
Assay: PK1 functional assay: screening for PK1 antagonists on the FLIPR (calcium fluorescence)
Conditions: for Ca^2+ Mobilization % Inh @10 μM: compound at 10 μM, HEK 293 GPR73 cells, multiple values = repeat tests; for pIC50: read-out: Ca^2+ Mobilization IC50, HEK 293 GPR73 cells, PK1 ligand at EC50, multiple values = repeat tests

## COc1ccc(Cn2c(NCCNC(=N)N)nc(=O)n(C(C)c3ccccc3)c2=O)cc1 (single isomer, unassigned) [26]
10 µM
  Ca^2+ Mobilization % Inh @10 μM: 88%
  pIC50: 6.45

## CCNC(=N)NCCNc1nc(=O)n(Cc2ccc(Cl)c(Cl)c2)c(=O)n1Cc1ccc(OC)cc1
10 µM
  Ca^2+ Mobilization % Inh @10 μM: 99% and 101%
  pIC50: 7.85 and 7.60

## COc1ccc(Cn2c(NCCNC(=N)N)nc(=O)n(C(C)c3ccccc3)c2=O)cc1 (single isomer, unassigned) [25]
10 µM
  Ca^2+ Mobilization % Inh @10 μM: 94%
  pIC50: 6.86

## CNC(=N)NCCNc1nc(=O)n(Cc2ccc(Cl)c(Cl)c2)c(=O)n1Cc1ccc(OC)cc1
10 µM
  Ca^2+ Mobilization % Inh @10 μM: 100% and 98%

## CCCCCCn1c(NCCNC(=N)N)nc(=O)n(Cc2ccc(Cl)c(Cl)c2)c1=O
  Ca^2+ Mobilization % Inh @10 μM: 60%

## CCCOc1ccc(Cn2c(NCCNC(=N)N)nc(=O)n(Cc3ccc(Cl)c(Cl)c3)c2=O)cc1
  Ca^2+ Mobilization % Inh @10 μM: 89%

## CC(C)Oc1ccc(Cn2c(NCCNC(=N)N)nc(=O)n(Cc3ccc(Cl)c(Cl)c3)c2=O)cc1
10 µM
  Ca^2+ Mobilization % Inh @10 μM: 100% and 101%
  pIC50: 7.21 and 7.01 and 6.95

pIC50: −log10 of the molar value. “And” between values parts separate entries of the source, which are not always exact repeats. Equal entries are not always repeated.
